Test results from patent US10676467B2 (Washington University, priority 2017, dated 2020).

Protein sequences, listed by entry. Tags and fused reporters are not part of them.
UniProt P21453, whole entry: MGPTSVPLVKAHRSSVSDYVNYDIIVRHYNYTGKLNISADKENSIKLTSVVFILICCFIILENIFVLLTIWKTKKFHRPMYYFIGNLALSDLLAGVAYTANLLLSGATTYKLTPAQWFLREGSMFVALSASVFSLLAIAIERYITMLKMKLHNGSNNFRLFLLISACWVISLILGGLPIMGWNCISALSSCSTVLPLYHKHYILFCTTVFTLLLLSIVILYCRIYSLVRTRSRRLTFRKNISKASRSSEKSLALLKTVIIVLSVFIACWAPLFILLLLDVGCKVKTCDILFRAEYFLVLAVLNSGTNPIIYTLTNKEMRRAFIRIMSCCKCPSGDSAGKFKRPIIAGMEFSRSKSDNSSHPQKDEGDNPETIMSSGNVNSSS

Target: recombinant human S1P1 (Homo sapiens (Human), UniProt P21453)
Experiment: [32P]S1P competitive binding assay on cell membranes
Settings: vs compound 4 (2.6 nM)

O=C(O)CNCc1ccc(-c2noc(-c3ccc(OCCF)c(C(F)(F)F)c3)n2)cc1
Fold increased S1P1 IC50 compared to compound 4: 38 fold
